Here are results for one compound from patent US11828750B2, “Material for screening for compound acting on ION channel and use thereof” (PUBLIC UNIVERSITY CORPORATION NAGOYA CITY UNIVERSITY, priority 2016, dated 2023).

By UniProt entry, the sequences of proteins in these tests, tags left out.
UniProt Q9NPC2, whole entry: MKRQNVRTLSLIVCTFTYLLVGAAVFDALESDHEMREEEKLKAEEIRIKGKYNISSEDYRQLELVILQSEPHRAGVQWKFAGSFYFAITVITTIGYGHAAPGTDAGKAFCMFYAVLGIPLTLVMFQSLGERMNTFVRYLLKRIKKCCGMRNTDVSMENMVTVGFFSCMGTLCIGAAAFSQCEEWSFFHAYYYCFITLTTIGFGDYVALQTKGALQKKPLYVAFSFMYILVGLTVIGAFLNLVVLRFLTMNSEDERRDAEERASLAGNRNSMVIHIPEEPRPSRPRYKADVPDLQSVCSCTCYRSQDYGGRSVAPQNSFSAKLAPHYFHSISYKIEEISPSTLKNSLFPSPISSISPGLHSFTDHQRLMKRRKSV

In assay [1] the target is T1, TASK-3 (Homo sapiens, UniProt Q9NPC2). To be noted: read-out: literature / reported IC50 for TASK-3; literature value (Coburn et al. 2012; Zou et al. 2010); cited from earlier work.
For assay [2], the system named is hTASK-1. In words: Cell death assay in TASK-1 test cells (hTASK-1 transiently expressing Kir 2.1#mutated Nav cells). It counts as cell-based, human. The protocol: (§1) With the TREK-1 test cells, the culture medium was replaced with measurement buffer (137 mM NaCl, 5.9 mM KCl, 2.2 mM CaCl2, 1.2 mM MgCl2, 14 mM glucose, 10 mM HEPES (pH 7.4 with NaOH), this also applies in the following) and BaCl2 was added to provide 200 μM Ba ion, a Kir 2.1 inhibitor. This was followed by incubation for approximately 12 hours under conditions of 37° C., atmospheric pressure, and 5% CO2 and monitoring of cell death. Cell death was observed when 8-Br-cAMP, a TREK-1 inhibitor, was supplied. The measurement of cell death was carried out using the MTT method with reference to a paper by the present inventors (Yamazaki, D., et al., Am J Physiol Cell Physiol 300, C75-86, 2011). […]

In assay [3] the target is T1, TASK-3. As to the kind of experiment: Cell death assay in TASK-3 test cells (hTASK-3 transiently expressing Kir 2.1#mutated Nav cells). It counts as cell-based. The protocol:
as §1

The mark [4] stands for this setting: in the presence of 200 μM Ba ion.
[5] abbreviates: read-out: IC50 value (induction of cell death), in the presence of 200 μM Ba ion.

The structures appear in SMILES notation. Where two headings read alike, the source gives them in different places.

As to `CCCC(=O)C1CCN(c2ncnc3c2CN(C(=O)c2ccc(-c4ccccc4)cc2)CC3)CC1`, the IC50 is 0.035 µM in assay [1], 0.00236 µM in assay [2] (setting [5]) and 0.0347 µM in assay [3] (setting [5]). Besides, the “induction of cell death by inhibitor” value in assay [2] (setting [4]) and in assay [3] (setting [4]) was “induction of cell death in a dose-dependent regime was observed” in each case.
